# scFv variants of Ab-14 (light chain) against a SARS-CoV-2 spike peptide

Data: MIT Lincoln Laboratory AlphaSeq set, Li et al. 2023, doi:10.1038/s41467-023-39022-2, as distributed in FLAb.

All variants were tested on one target, the spike HR2 peptide PDVDLGDISGINAS (SARS-CoV-2).

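The starting antibody came from a phage panning campaign against this peptide. These sequences belong to a second round, designed from the earlier measurements on random variants of the parent. Group labels follow the data file (Ctrl: baseline library sampled from a position-specific scoring matrix, with some repeated check sequences; Rand: our label for a block that the file lists under HC and that is probably the random mutants of the ten best first-round binders; En: ensemble of fine-tuned language models; GP: Gaussian process model; HC: hill climbing; Gen: genetic algorithm; Gibbs: Gibbs sampling; a sequence that several methods proposed may carry one label only). AlphaSeq pools MATa yeast showing the antibodies with MATalpha yeast showing the peptide. Pairs that bind mate more often; barcode pairs of the diploids are counted by sequencing. Read counts were normalised to the haploid input and turned into Kd by a linear fit to BCL2-family pairs of known affinity, for each replicate. The assay was run in six technical replicates.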

Parent scFv Ab-14: VH joined to VL by three GGGGS repeats. Changes lie in the light chain CDRs alone.
VH: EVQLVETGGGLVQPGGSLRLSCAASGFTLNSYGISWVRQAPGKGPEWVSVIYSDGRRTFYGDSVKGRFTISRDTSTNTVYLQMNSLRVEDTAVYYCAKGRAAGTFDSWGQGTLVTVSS
VL: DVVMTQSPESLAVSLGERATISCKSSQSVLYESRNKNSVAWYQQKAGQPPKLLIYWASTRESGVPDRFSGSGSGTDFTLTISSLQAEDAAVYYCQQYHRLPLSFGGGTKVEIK

Variants are written as CDR1, CDR2 and CDR3 of the light chain (limits as in the source). Parent: KSSQSVLYESRNKNSVA, WASTRES, QQYHRLPLS. Numbers give log10(Kd / nM), so 0 is 1 nM and 3 is 1 µM. Smaller is tighter. The mean shown is taken over the replicates in which the pair was detected. A pair that was not seen in any replicate is written "nd"; this usually means weak binding, but a binder can also be missed. The parent sequence was in this pool as ten entries: three were never detected, three once, and four in most replicates, with averages from 0.34 to 2.37. Values of this round are not directly comparable with the first-round values of the same sequences. The authors averaged sequences with at least three values out of six and counted those with two or fewer as poor binders. Background: pairings of all light chain designs with three empty control strains gave a value in 4% of cases (median 2.64, 5th percentile 1.59). Values in that range, when seen in few replicates, are hard to tell from nonspecific mating.

mean log10 Kd (nM)	seen in	CDR-L1	CDR-L2	CDR-L3	group
2.13	4/6	SMEWEEWNGQSKKHNIA	ADTKVLE	QQYFRLPFY	En_Gibbs
0.30	6/6	KLQQSVEYESRNKNSVA	HASTRLS	QQYHRLPLS	GP_Gen
1.61	3/6	MFSQLVYTGSRTKNAVA	QASTREN	QQYHRLPLM	En_HC
1.09	6/6	MFSQLFMYGSRNRNSVA	QASTRES	QQYDRLPLI	En_HC
0.06	6/6	MISDLTMYGSRNANSVA	DLSTRGS	QQYHRLPLS	En_HC
1.24	6/6	KITQMFTGESHNKNSIA	QMTTREG	QQYHRLPLS	En_HC
1.64	6/6	SLGLVTMLEYAERNNVA	NNSTREE	QQYDRLPLS	En_Gen
0.26	6/6	KIDSQYQHGTNQKKAMA	DSSVSTQ	QQYSRLPLS	En_Gibbs
0.19	6/6	KFSQSVLYETRTKNSVA	NASTRES	QQYHRLPLS	GP_HC
0.66	6/6	KSSQSVLYESGNKNAVA	GASMRGE	QQYHRLPLS	Ctrl
1.31	6/6	QTTAFYEHGKDQQQAMA	NATMRDQ	QQYERLPLS	En_Gibbs
1.09	5/6	KISATYRYESQNKNSIA	EMTTRES	QCYHRLPLS	En_HC
0.33	6/6	QMYPFGNAKGEGSNNVA	HVSTRAL	QQYFRLPLV	En_Gibbs
-0.09	6/6	KLPQSVLYESRNKNSVA	NASYRES	QQYHRLPLS	GP_Gen
nd	0/6	KSSQSVLYESRNKNSVA	EASTRES	QQYHCLPLS	Ctrl
0.15	6/6	KMSQSWLMEQRNVNSVA	QASKRLL	QQYHRLPLS	GP_Gibbs
1.17	6/6	MISQVMNTLTRYGNNVA	DLTEREE	QQYFRLPLS	En_Gen
0.19	6/6	KVSQGELYESRDWNNVA	NASTREN	QQYHRLPLS	GP_Gibbs
1.50	6/6	KLSWDCTTDLNRMHSIA	ESEVAVD	QQYAHLPLT	En_Gibbs
-0.51	6/6	HISMSMNYLSRNKNNIA	EESTRED	QQYHRLPLS	En_HC
-0.07	6/6	VLPDNLLMSESQYHSIA	NGVQRME	QQYMRLPLT	En_Gibbs
-0.29	6/6	KLQQSDLYESRNKNSVA	NASTRMS	QQYHRLPLS	GP_Gen
1.28	6/6	KLSATYRFESQNKNNIA	EMTTREQ	QCYHRLPLS	En_HC
0.67	6/6	KLPQSWEYESRNKNSVA	NASTRES	QQYHRLPLS	GP_Gen
nd	0/6	NISTQIPEFEMWDNNIA	GATLRPT	QDYARLPLS	En_Gibbs
1.29	5/6	KSSQNVLYESRNKNAVA	WGSTRES	QQYMRLPLS	Ctrl
0.12	6/6	HLGGLMTWEEKARNSVA	QQTTRAE	QQYHRLPLS	En_HC
2.41	3/6	KSSQSVMYENRNKNSVA	WASTRES	QQYHDLPLS	Ctrl
0.31	6/6	KLVQFMNRGTHHTSNIA	DAVNRID	QQYARLPLA	En_Gen
2.44	6/6	KIMQSLNYESFGKNSVA	GQETRER	QSYHRLPLS	En_HC
-0.40	6/6	KVSPSWEYEDRNKNSVA	QASQRCS	QQYHRLPLS	GP_Gibbs
0.49	6/6	KLSQSVLYESRNKNSVA	DASTRES	QQYHRLPSS	GP_HC
0.50	6/6	KSYPSYLYESRNKNSVA	QASTRES	QQYHRLPLS	GP_HC
1.68	3/6	MLVGPDEIEQHNWQSVA	SAEALAM	QQYFRLPLS	En_Gibbs
0.05	6/6	HSSPSGAYESRNKNSVA	NASTRES	QQYHRLPLS	GP_HC
1.08	6/6	KSSQSVLYDSRNKNSVA	WASTRES	QQYQRLPLS	Ctrl
1.50	6/6	NMKVGLNFEDIQHQAIA	EVDERES	QQYARLPLT	En_Gibbs
0.24	6/6	KLYGSVLYESRNKNSVA	GASQREK	QQYHRLPLS	GP_Gibbs
2.71	3/6	RSCQSVLYDSRDGNSIA	WASTREP	QQYHRLPLS	Ctrl
0.48	6/6	KSSQIVLGMDGNKNSVA	QASQRES	QQYHRLPLS	GP_Gibbs
0.32	6/6	KLSQSVLFFGHAINNVA	EMETREN	QQYDRLPLS	En_HC
0.68	6/6	KISMTYRYESQASNNIA	EMTTREE	QSYHRLPLS	En_HC
-0.13	6/6	HSSPSVLYESYNKNSVA	NASTRES	QQYHRLPLS	Rand
0.66	6/6	KLDQSWLYGSRNKNSVA	NASERER	QQYHRLPLS	GP_Gibbs
0.41	6/6	SLMQSVLQESRNKNSVA	HASLRED	QQYHRLPLS	GP_HC
0.44	6/6	AFSQSHLYESRNQNSVA	EASTRCD	QQYHRLPLS	GP_Gibbs
0.14	6/6	KMSPSHLYESRNKNSVA	NASTRET	QQYHRLPLS	GP_Gibbs
0.30	6/6	KIHQSELYEDRNINSVA	SASQRSS	QQYHRLPLS	GP_Gibbs
1.03	6/6	MFSQLVYTGSHTRNAVA	QASTREN	QQYHRLPLS	En_HC
0.31	6/6	KVGLVTNGISFSKNSVA	EQSTRED	QQYDRLPLS	En_HC
-0.64	6/6	KLSQSELYESRNKNAVA	NASTRES	QQYHRLPLS	GP_Gen
2.04	1/6	KSSQSVLYESRYKNSVA	WASTRES	QQYHRLPLG	Ctrl
0.00	6/6	KLSCSEPYDSPMSNSVA	NASTRER	QQYHRLPLS	GP_Gibbs
0.64	6/6	KLSYSVEYEDRNKNSVA	QASQRNS	QQYHRLPLS	GP_Gibbs
1.36	4/6	KISQMTRVGATHNNSIA	EEQTRAK	QQYHRLPLA	En_Gen
0.77	6/6	KIGMTLNQLYEKANNVA	DLVTREN	QQYHRLPLS	En_Gen
2.03	6/6	MISQIMNMGQFAINSVA	QAEIRNA	QQYDRLPLA	En_Gen
1.39	1/6	KSDQSVLYESPNKNSVA	WASTRLS	QQYHRLGLS	Ctrl
-0.27	6/6	KLSQSVLYEQRNKNSVA	EASTRES	QQYHRLPLS	GP_Gen
1.38	6/6	KSSQSVLYESRNKNSVA	WASERES	QQYHRLPFS	Ctrl
-0.42	6/6	KLPQGVLYESRMKNSVA	GASVRES	QQYHRLPLS	GP_HC
0.15	6/6	ILSDTVMQGSYYKNSVA	QESTRAD	QQYHRLPLS	En_HC
4.40	2/6	ILYESAGTLSRNKNSVA	DNSTRES	QQYDRLPLS	En_HC
-0.09	6/6	KYSQSVVYESRNQNSVA	QASVRES	QQYHRLPLT	Ctrl
1.48	6/6	KSSQSVLYESRNKNSVA	HASIRSS	QAYHRLPLS	Ctrl
-0.09	6/6	KLSQSVLYESRNKNSVA	KASTRES	QQYHRLPLF	Ctrl
0.69	6/6	KSSNSVLYESRNKNSVA	AASTRES	QQYHRLPLS	Ctrl
1.18	6/6	KSSQSWLYESRNFWSVA	HASTRES	QQYHRLPLS	GP_HC
0.00	6/6	HISNMQAYGYSAYNSVA	DNENKLN	QQYIRLPLT	En_Gibbs
2.07	6/6	KSSQHVLYESSNKNSVA	WASTRES	QQYHHLPLS	Ctrl
1.01	6/6	KLRSSTHIESFNKNNVA	EMTTRES	QSYDRLPLS	En_HC
0.08	6/6	KLQQWWLYEGRNKNSVA	QASQRSD	QQYHRLPLS	GP_Gibbs
nd	0/6	KSSQSVLYASRNKNSVA	WASTREL	QQYHRLPLS	Ctrl
2.00	6/6	KLRREADGWNRNEWNIA	DADHRGA	QQYSHLPLC	En_Gibbs
0.44	6/6	KFSQSVLYESRQSNRVA	NASTRES	QQYHRLPLS	GP_HC
1.10	6/6	KMSQSVLYESRNKNSVA	WASTRES	QQYDRLPLI	Ctrl
0.23	6/6	KLYFNVGTMSHNQQSIA	DMERRED	QQYHRLPLS	En_HC
2.58	4/6	KVSEFMRGLTQRKDSIA	DNVTRNS	QQYDRLPLS	En_Gen
0.67	6/6	KFSQSVNFFGHAINSVA	EMETREN	QQYDRLPLS	En_HC

Excerpt, the first 7 entries:

CDR-L1	CDR-L2	CDR-L3	group	mean log10 Kd (nM)	seen in
SMEWEEWNGQSKKHNIA	ADTKVLE	QQYFRLPFY	En_Gibbs	2.13	4/6
KLQQSVEYESRNKNSVA	HASTRLS	QQYHRLPLS	GP_Gen	0.30	6/6
MFSQLVYTGSRTKNAVA	QASTREN	QQYHRLPLM	En_HC	1.61	3/6
MFSQLFMYGSRNRNSVA	QASTRES	QQYDRLPLI	En_HC	1.09	6/6
MISDLTMYGSRNANSVA	DLSTRGS	QQYHRLPLS	En_HC	0.06	6/6
KITQMFTGESHNKNSIA	QMTTREG	QQYHRLPLS	En_HC	1.24	6/6
SLGLVTMLEYAERNNVA	NNSTREE	QQYDRLPLS	En_Gen	1.64	6/6